Data taken from ChEMBL document CHEMBL1132255, “Structure-activity relationships for 5-substituted 1-phenylbenzimidazoles as selective inhibitors of the platelet-derived growth factor receptor” (J Med Chem, 1999).

Protein sequences, listed by entry. Tags and fused reporters are not part of them.
UniProt P11362, whole entry: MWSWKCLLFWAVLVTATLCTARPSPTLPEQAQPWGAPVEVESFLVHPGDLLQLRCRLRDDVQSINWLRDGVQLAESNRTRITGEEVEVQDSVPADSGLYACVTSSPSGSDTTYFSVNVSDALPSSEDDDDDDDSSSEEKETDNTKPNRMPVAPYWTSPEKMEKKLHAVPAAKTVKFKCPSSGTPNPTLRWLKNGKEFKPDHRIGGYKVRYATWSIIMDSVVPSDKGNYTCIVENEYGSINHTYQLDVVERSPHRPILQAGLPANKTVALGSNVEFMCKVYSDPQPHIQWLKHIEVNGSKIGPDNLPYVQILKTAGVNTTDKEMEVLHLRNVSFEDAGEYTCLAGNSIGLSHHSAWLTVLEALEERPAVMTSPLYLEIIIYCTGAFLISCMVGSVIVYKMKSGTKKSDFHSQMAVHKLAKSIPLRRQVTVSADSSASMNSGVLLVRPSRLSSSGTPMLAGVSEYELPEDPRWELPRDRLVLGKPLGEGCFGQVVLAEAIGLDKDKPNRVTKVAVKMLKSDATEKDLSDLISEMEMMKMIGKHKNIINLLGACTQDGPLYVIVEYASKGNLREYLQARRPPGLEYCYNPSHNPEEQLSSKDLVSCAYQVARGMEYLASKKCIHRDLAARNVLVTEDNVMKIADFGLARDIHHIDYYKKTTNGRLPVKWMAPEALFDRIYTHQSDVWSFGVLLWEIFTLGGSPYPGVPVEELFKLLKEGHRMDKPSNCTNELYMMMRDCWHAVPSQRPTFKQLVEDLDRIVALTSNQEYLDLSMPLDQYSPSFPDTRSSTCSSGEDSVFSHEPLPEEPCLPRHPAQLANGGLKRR

Target: Fibroblast growth factor receptor 1 (Homo sapiens, UniProt P11362)
Assay: Inhibition of [32P]ATP incorporated (phosphorylation) into glutamate-tyrosine copolymer substrate by human fibroblast growth factor receptor 1
Procedure, shortened: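 Enzymes were intracellular tyrosine kinase domain fragments (human FGFR-1 […], mouse PDGFR-β […]), 60–75 ng per reaction, in 25 mM HEPES pH 7.4 with 150 mM NaCl, 10 mM MnCl₂, 0.2 mM sodium orthovanadate, Glu-Tyr (4:1) random copolymer substrate and varied inhibitor. Reactions were started with [³²P]ATP (0.4 μCi), run 10 min at 25 °C and stopped with 15% TCA. IC50 was taken as the concentration reducing ³²P incorporation into the copolymer.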

Cc1cc2c(cc1O)ncn2-c1ccccc1
IC50: > 50 µM
